Measurements taken from patent publication US20230227492A1 (priority 2020, published 2023).

The chains behind the UniProt entries cited, without tags or fusion partners. Residues count along the entry.
UniProt P15207, 651-882 limits assumed: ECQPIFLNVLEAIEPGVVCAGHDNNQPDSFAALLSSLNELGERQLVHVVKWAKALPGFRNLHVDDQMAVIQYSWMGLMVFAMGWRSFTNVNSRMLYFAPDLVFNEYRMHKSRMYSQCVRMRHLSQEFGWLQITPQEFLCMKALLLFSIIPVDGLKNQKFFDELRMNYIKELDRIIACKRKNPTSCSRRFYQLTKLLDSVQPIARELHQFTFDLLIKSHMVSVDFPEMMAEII

Target: T1, rat AR ligand-binding domain tagged with His and GST [AR-LBD (His-GST)] (Rattus norvegicus, UniProt P15207)
T1 construct: purchased Life Technologies (Carlsbad, Calif.)
Assay: AR fluorescence polarization (FP) binding assay
Details: Fluormone AL Green

CC12CCC(=O)C=C1CC(c1ccccc1)C1C2CCC2(C)C(O)CCC12 (stereo not drawn) [CDB-4921, 7β-Phenyl Testosterone]
IC50 (nM) AR: 891.7 nM

CC12CCC(=O)C=C1CC(c1ccccc1)C1C2CCC2(C)C(O)CCC12 (stereo not drawn) [CDB-4920, 7α-Phenyl Testosterone]
IC50 (nM) AR: 43.1 nM
